In experiment [1] the target is T1, human GzmK (Homo sapiens, UniProt P49863).
T1 construct: Met-Glu N-terminal helper dipeptide (pro-dipeptide) (N, cleaved yes); made in house
T1 sequence (P49863 27-264): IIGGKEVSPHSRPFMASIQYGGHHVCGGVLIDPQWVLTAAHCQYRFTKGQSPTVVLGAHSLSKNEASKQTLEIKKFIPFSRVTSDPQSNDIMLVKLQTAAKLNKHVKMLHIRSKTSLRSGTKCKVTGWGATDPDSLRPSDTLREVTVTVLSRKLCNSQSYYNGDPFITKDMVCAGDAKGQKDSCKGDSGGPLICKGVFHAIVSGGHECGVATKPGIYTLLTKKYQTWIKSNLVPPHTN
In words: Inhibition of human GzmK by various inhibitors (residual activity, this study). As to conditions: inhibitor 2.0 mM, I:E 670 x 10^3; 3 nM human GzmK; 60-minute preincubation at RT. In kind it is biochemical. As to the method: These activity tests were performed in wells of a 96-cup tray with respectively 150 μl of the sample volume.
The thiobenzylester substrates and Ellman's reagency were diluted to end concentrations of 0.3 mM in the test buffer (150 mM Tris, 50 mM NaCl, 0.01% Triton X-100, pH 7.6). The various granzyme preparations were likewise diluted to 3-15 nM in the test buffer. The color change occurring with the conversion of the substrates was measured at 405 nm and room temperature over 5 minutes in the ELISA reader. The difference in absorptions at the beginning and after 5 minutes as it relates to time was used to calculate the conversion rate.
After a 60-minute preincubation at RT the residual activity was ascertained in triple batches. Initial activities were determined in buffers containing the same proportion of organic solvents. […] Molar concentrations of active aprotinine were ascertained with the use of activity-titrated bovine trypsin.

In experiment [2] the target is T1, human GzmK. As to conditions: table row: inhibitor 2.0 mM; cited from earlier work.

Structures are written as SMILES.

`O=S(=O)(F)Cc1ccccc1` [PMSF, phenylmethylsulfonyl fluoride]: the “Residual Activity (%) This study” value on human GzmK [1] was found to be 0.0%. Moreover, the “Residual Activity (%) Babé et al., Bio. Appl. Bioch. 27:117-124 (1998)” value at human GzmK [2] is reported as 0%.

Source of the values: patent publication US20020192754A1, “Method for producing active serine proteases and inactive variants” (MAX-PLANCK-GESELLSCHAFT E.V., priority 1999, published 2002).
